Here are results for two molecules from ChEMBL document CHEMBL4665792, “Design and SAR of Withangulatin A Analogues that Act as Covalent TrxR Inhibitors through the Michael Addition Reaction Showing Potential in Cancer Treatment” (J Med Chem, 2020).

Structures are written as SMILES.

The species named for this assay is Homo sapiens. Kind of assay: Covalent inhibition of TrxR (unknown origin) assessed as ratio of Kinact to ki incubated up to 30 mins in presence of NADPH by Ellman's method. As to conditions: time min <=30. (In general: DTNB colorimetry detects thiols as they appear.)

In the case of `CC(=O)O[C@H]1C=C([C@H](C)[C@H]2CC(C)=C(C)C(=O)O2)[C@@]2(C)CC[C@H]3[C@@H](C[C@H]4O[C@]45[C@@H](OC(=O)/C=C/C(=O)N(C)C)C=CC(=O)[C@]35C)[C@]12O`, the Ratio is 0.0254 µM⁻¹ min⁻¹. Regarding `CC(=O)O[C@H]1C=C([C@H](C)[C@H]2CC(C)=C(C)C(=O)O2)[C@@]2(C)CC[C@H]3[C@@H](C[C@H]4O[C@]45[C@@H](O)C=CC(=O)[C@]35C)[C@]12O`, the Ratio was 0.004 µM⁻¹ min⁻¹.
